Binding of CDR-mutated scFvs to a peptide of the spike HR2 region

Reference: Engelhart et al. 2022, doi:10.1038/s41597-022-01779-4. File: FLAb, binding data.

Target: peptide PDVDLGDISGINAS, taken from heptad repeat 2 (HR2) of SARS-CoV-2 spike.

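The starting antibody came from a phage panning campaign against this peptide. In library AAYL49, one, two or three CDR residues were substituted; doubles and triples were drawn at random. The scFvs were displayed on barcoded MATa yeast, the peptide on MATalpha yeast. Mating (16 h, 30 °C) was followed by selection of diploids and sequencing of their barcodes. The ratio of observed to expected reads was calibrated, replicate by replicate, on BCL2-family standards whose Kd was known from biolayer interferometry. The assay was run in three technical replicates.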

Parent scFv Ab-14: VH joined to VL by three GGGGS repeats. Changes lie in the heavy chain CDRs alone.
VH: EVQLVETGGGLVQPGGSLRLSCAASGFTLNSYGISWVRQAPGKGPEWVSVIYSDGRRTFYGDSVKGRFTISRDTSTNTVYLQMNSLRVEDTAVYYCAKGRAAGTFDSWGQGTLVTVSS
VL: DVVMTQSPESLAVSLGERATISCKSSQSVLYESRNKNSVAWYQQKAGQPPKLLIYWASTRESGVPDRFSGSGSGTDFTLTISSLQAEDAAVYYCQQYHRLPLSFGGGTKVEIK

Positions count from residue 1 of the parent VH; F27C puts C in place of F.
Affinities are written as log10 Kd with Kd in nM; a lower number is a better binder.
Replicates are averaged; those with no signal do not enter the mean.
"nd" means that the variant was in the library but no mating with the target was seen in any replicate; the authors take this as a sign of poor binding, and no number exists.

"mean, log10 nM",seen in,changes
5.12,1 of 3,F27C+S53C+R100L
5.51,2 of 3,Y52R+G99N+G103T
1.09,3 of 3,S31L+R56I+T58K
nd,0 of 3,I34D+D106C
3.47,3 of 3,F59L+G99N+D106F
4.06,2 of 3,V50Y+G61N+F105A
nd,0 of 3,N30R+G55A+T58N
nd,0 of 3,G26I+S31M+G55K
nd,0 of 3,Y32P+Y52M+T58F
nd,0 of 3,R57I+D106I
nd,0 of 3,L29F+Y60K+V64M
nd,0 of 3,F27N+F59T+D62L
3.37,1 of 3,I51S+D62Y+G103Q
nd,0 of 3,S31Q+S53D+D62C
nd,0 of 3,S31Y+I34S+S63E
3.19,1 of 3,V50Q+T104R
3.57,3 of 3,F27A+T58I+T104E
nd,0 of 3,Y32F+I51P+S107W
4.75,1 of 3,I51V+Y52M+F105L
3.79,2 of 3,G55V+S63H+F105K
4.18,1 of 3,L29G+I34N+F105K
1.54,3 of 3,Y32Q+A101H
4.15,3 of 3,T28L+N30F+F105W
nd,0 of 3,F27K+T58D+S107Q
2.57,2 of 3,S31N+I51E+G61L
nd,0 of 3,V50E+R56H+Y60I
nd,0 of 3,L29F+Y52K
4.57,2 of 3,F27N+V50C+D106V
4.09,3 of 3,T28P+F59Q+K65Q
0.52,3 of 3,D106H+S107T
4.95,1 of 3,L29V+Y32L+D106M
5.05,1 of 3,S31F+G55K
nd,0 of 3,D62I+V64H+K65G
4.46,3 of 3,T28L+G33L+A101W
nd,0 of 3,F27G+G55E+T104V
3.32,1 of 3,S31Q+G33L+D106K
2.08,3 of 3,D62E+R100M+S107F
4.50,1 of 3,S53Q+D54Y+A102D
4.75,1 of 3,G33T+S35T+D106P
nd,0 of 3,R57L+V64W+F105N
nd,0 of 3,G33V+V50C+Y52S
4.17,3 of 3,S35N+G55F+S63A
4.41,1 of 3,R56S+R100I
nd,0 of 3,I51E+F105K+S107W
4.37,1 of 3,G55H+T58L+S107D
3.84,1 of 3,R57I+T58H+D62T
5.35,2 of 3,G26R+G55Y+F59R
0.44,3 of 3,S31M+G61H
nd,0 of 3,F27Y+Y32R+A101L
nd,0 of 3,G26Q+G55M+R100N
nd,0 of 3,S35R+S107V
4.70,2 of 3,T28R+V50D+I51E
nd,0 of 3,L29E+I34Y+A102D
nd,0 of 3,N30K+Y60V+V64A
nd,0 of 3,V50E+Y60C+D62S
4.82,1 of 3,I51H+D62Q
3.37,1 of 3,Y32W+S35G+S63Q
nd,0 of 3,F27S+I34T+D106E
nd,0 of 3,F27N+G33Y+S63F
nd,0 of 3,T58P+V64P+T104A
nd,0 of 3,F27G+N30H+R56W
nd,0 of 3,S31E+S63M+V64T
nd,0 of 3,Y52E+A101P+A102L
nd,0 of 3,V50Q+Y52G+G55I
2.79,1 of 3,F27G+Y52E
2.90,1 of 3,Y32T+D106Y
nd,0 of 3,N30M+S31I+G99N
2.22,3 of 3,T28L+S35Y+K65Q
nd,0 of 3,F27I+S35I+F59L
4.45,2 of 3,F27N+S35I+D62A
0.39,3 of 3,K65R+R100N+A101R
nd,0 of 3,N30R+Y60C+S63R
nd,0 of 3,I34Y+T58I+Y60D
4.18,1 of 3,S35F+D106H
nd,0 of 3,R57I+D62A+R100G
3.18,2 of 3,S31W+S63H+D106Y
nd,0 of 3,I51D+D54V+G99L
nd,0 of 3,D54M+R57H+Y60R

Picked from the list: the 4 lowest averages where every replicate gave a value.

| changes | mean, log10 nM | seen in |
|---|---|---|
| K65R+R100N+A101R | 0.39 | 3 of 3 |
| S31M+G61H | 0.44 | 3 of 3 |
| D106H+S107T | 0.52 | 3 of 3 |
| S31L+R56I+T58K | 1.09 | 3 of 3 |

As a blank, each scFv also met three strains without target: over library AAYL49, 15% of these pairings were detected, typically at 4.06 and seldom below 2.83.
Parent in this assay: reference entry 0.65, copy in this library 4.11 (one replicate of three).